Drawing on article PMC2839030 (Chemical research in toxicology, 2010), this text covers IC50 for two compounds.

By UniProt entry, the sequences of proteins in these tests, tags left out. Residues count along the entry.
UniProt P05177, 2-516 limits assumed: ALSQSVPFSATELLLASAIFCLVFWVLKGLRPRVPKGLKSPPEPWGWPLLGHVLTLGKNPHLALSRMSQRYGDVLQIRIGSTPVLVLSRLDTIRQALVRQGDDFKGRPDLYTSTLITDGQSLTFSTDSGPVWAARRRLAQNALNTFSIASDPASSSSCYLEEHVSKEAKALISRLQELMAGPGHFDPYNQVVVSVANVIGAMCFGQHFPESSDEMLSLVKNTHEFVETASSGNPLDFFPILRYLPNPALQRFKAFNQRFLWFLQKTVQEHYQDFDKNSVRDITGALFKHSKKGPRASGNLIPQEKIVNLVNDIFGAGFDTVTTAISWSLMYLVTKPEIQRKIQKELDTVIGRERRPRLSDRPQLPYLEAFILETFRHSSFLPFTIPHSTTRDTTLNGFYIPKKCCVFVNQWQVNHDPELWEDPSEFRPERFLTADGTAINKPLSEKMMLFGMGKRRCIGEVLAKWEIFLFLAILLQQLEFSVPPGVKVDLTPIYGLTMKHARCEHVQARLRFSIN

The target of the assay is human CYP1A2 (Homo sapiens, UniProt P05177). The assay can be described thus: 7-Methoxyresorufin O-demethylation. It is filed as biochemical.

As for `CC#Cc1cc2ccccc2c2ccccc12` [Compound 9-MEPhen, 9-(1-propynyl)phenanthrene], inhibition was half-maximal at 670 nM (IC50). In turn, `C#Cc1cc2ccccc2c2ccccc12` [Compound 9-Ephen, 9-ethynylphenanthrene] registered an IC50 of 400 nM.

The IC50 is the concentration that gives 50% inhibition. Read a high IC50 as weaker potency.
